{"source": "patent US20100150842A1", "about": "“Method and Kit for Detecting Resistance in Living Organisms” (priority 2007, published 2010)", "origin": "cited, not measured here", "tested_on": "fish and aquatic invertebrates", "conditions": "if it reaches water bodies; cited from earlier work", "data": [{"smiles": "N#Cc1cc(Br)c(O)c(Br)c1", "note": "[Bromoxynil]", "values": [{"measurement": "toxicity to fish and aquatic invertebrates", "result": "toxic"}]}]}
